Laboratory results reported in patent US5104858A, “Sensitizing multidrug resistant cells to antitumor agents” (priority 1988, dated 1992).
“Also recorded” adds a separate entry of the source.

Key:
acute schizophrenia = conditions: clinical trial, Johnston et al; cited from earlier work
MCF-7/DOX cells [1] = experiment: Antagonism of multidrug resistance (sensitization to doxorubicin) in MCF-7/DOX cells, MDR Ratio
MCF-7 cells = conditions: 3 hours, 15 μM doxorubicin; 3 μM cis- or 6 μM trans-flupenthixol
dopamine receptors = conditions: cited from earlier work
MCF-7/DOX cells [2] = conditions: 50% inhibition of MCF-7/DOX cell growth, 48 hours

Compound | antipsychotic effect (acute schizophrenia) | MDR Ratio (IC50 doxorubicin alone / IC50 doxorubicin in presence of modifier) (MCF-7/DOX cells [1]) | effect on accumulation of doxorubicin in the sensitive line (MCF-7 cells) | dopamine antagonism (dopamine receptors) | interaction of doxorubicin and trans-flupenthixol by isobologram analysis (MCF-7/DOX cells [2]) | relative anti-MDR potency of trans versus cis isomer (MCF-7/DOX cells [1]) [fold] | antagonism of MDR (MCF-7/DOX cells [1]; human, mcf-7/dox cells) [fold]
OCCN1CCN(CC/C=C2/c3ccccc3Sc3ccc(C(F)(F)F)cc32)CC1 [cis-Flupenthixol] | potent neuroleptic; also recorded: far more effective than trans-flupenthixol | 4.8 | no significant effect | powerful antagonist of dopamine receptors | – | – | –
OCCN1CCN(CC/C=C2\c3ccccc3Sc3ccc(C(F)(F)F)cc32)CC1 [trans-Flupenthixol] | no activity as an anti-psychotic | 15.2 | no significant effect | – | synergistic | 3 | 15 to 37
